{"sequences": {"note": "Protein sequences, listed by entry. Tags and fused reporters are not part of them.", "UniProt P61168, whole entry": "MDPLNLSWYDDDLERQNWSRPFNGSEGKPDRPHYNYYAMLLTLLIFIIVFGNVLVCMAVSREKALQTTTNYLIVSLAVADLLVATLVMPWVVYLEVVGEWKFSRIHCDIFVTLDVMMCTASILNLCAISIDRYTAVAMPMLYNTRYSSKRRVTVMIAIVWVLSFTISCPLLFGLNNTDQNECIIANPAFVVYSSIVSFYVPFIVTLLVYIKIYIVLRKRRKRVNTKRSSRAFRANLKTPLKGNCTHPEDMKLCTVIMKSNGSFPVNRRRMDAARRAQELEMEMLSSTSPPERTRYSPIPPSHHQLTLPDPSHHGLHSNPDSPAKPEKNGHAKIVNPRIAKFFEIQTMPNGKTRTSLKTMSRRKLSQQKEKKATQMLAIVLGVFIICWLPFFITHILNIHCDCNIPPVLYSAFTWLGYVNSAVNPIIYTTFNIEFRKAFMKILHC"}, "source": "patent US20090100532A1", "about": "“TRANSGENIC MICE EXPRESSING HYPERSENSITIVE NICOTINIC RECEPTORS” (CALIFORNIA INSTITUTE OF TECHNOLOGY, priority 2007, published 2009)", "biological_target": "D2 DA receptor (Mus musculus, UniProt P61168)", "data": [{"molecule": "CCCN1CCC[C@@H]2Cc3n[nH]cc3C[C@H]21", "note": "[quinpirole]", "values": [{"measurement": "inhibition of firing of cells expressing α6* nAChRs", "result": "sensitive to the inhibitory properties"}]}]}
